Paper PMC11220606, “Understanding β-strand mediated protein–protein interactions: tuning binding behaviour of intrinsically disordered sequences by backbone modification” (Chemical Science, 2024)

Protein sequences, listed by entry. Tags and fused reporters are not part of them. Residues count along the entry.
UniProt P63165, 18-97: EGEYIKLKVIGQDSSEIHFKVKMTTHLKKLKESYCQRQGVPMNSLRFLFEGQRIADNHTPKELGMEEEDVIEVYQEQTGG

Tests used:
[1] = target: T1, human SUMO-1_18–97 (SUMO) (Homo sapiens, UniProt P63165); assay: Temperature dependence of NMR-derived exchange parameters (Van't Hoff and Eyring analysis); type: binding; design: human SUMO-1_18–97 (SUMO); His tag with TEV site (N, cleaved yes); made in house; settings: 25 °C, ± SD of fitted parameter (Monte-Carlo)
Description: Eyring plots were obtained for the temperature-dependence of the kon and koff rates (Fig. 5d and e), from which the association/dissociation activation enthalpies (ΔH^‡ass/ΔH^‡diss), activation/dissociation entropies (TΔS^‡ass/TΔS^‡diss), and thus activation/dissociation free energies (ΔG^‡ass/ΔG^‡diss), could be determined.

[2] = target: T1, human SUMO-1_18–97 (SUMO); assay: Fluorescence anisotropy competition assay (FAM-SIM tracer displacement from SUMO)
[3] = target: T1, human SUMO-1_18–97 (SUMO); assay: Temperature dependence of NMR-derived exchange parameters (Van't Hoff and Eyring analysis); type: binding; design: human SUMO-1_18–97 (SUMO); His tag with TEV site (N, cleaved yes); made in house; settings: 25 °C, Van't Hoff fit, ± SD of fitted parameter (Monte-Carlo)
[4] = target: T1, human SUMO-1_18–97 (SUMO); assay: Relaxation-based NMR binding kinetics (15N ZZ-exchange for tighter binders, CPMG relaxation dispersion for weaker binders)

TΔS, Association (activation, kon) ([1]; Eyring fit): 32.17 ± 0.239 kcal/mol
TΔS, Dissociation (activation, koff) ([1]; Eyring fit): -2.84 ± 0.072 kcal/mol
ΔG, Association (activation, kon) ([1]; Eyring fit): 7.22 ± 0.287 kcal/mol
ΔG, Dissociation (activation, koff) ([1]; Eyring fit): 15.3 ± 0.096 kcal/mol
ΔH, Association (activation, kon) ([1]; Eyring fit): 39.39 ± 0.239 kcal/mol
ΔH, Dissociation (activation, koff) ([1]; Eyring fit): 12.4 ± 0.072 kcal/mol
ΔG, Binding (KD) ([1]; Van't Hoff fit): -8.03 ± 0.239 kcal/mol
IC50 [2]: 10.7 ± 0.7 µM
TΔS, Binding (KD) [3]: 35.06 ± 0.669 kcal/mol
ΔH, Binding (KD) [3]: 27.03 ± 0.17 kcal/mol
Kd [4]: 33.6 ± 0.9 µM
koff ([4]; pH 7.4): 8.22 ± 0.08 s⁻¹
kon ([4]; pH 7.4): 245000 ± 7000 M⁻¹ s⁻¹
Structure (SMILES): CC[C@H](C)[C@H](NC(=O)[C@H](CCC(=O)O)NC(=O)[C@H](CC(N)=O)NC(=O)[C@H](CC(=O)O)NC(C)=O)C(=O)N[C@@H](CCC(=O)O)C(=O)N[C@H](C(=O)N[C@H](C(=O)N[C@H](C(=O)N[C@H](C(=O)N[C@@H](Cc1c[nH]c2ccccc12)C(=O)N[C@@H](CCC(=O)O)C(=O)N[C@@H](CCCCN)C(=O)N[C@@H](CCCCN)C(N)=O)C(C)C)[C@@H](C)CC)[C@@H](C)CC)C(C)C [Parent SIM, reference compound]
